Literature values, collected in patent publication US10195187B2, “Oxybutynin-xanomeline transdermal therapeutic system combinations” (Chase Pharmaceuticals Corporation, priority 2015, dated 2019).

System: muscarinic receptors
Conditions: oral and iontophoretic patch administration; cited from earlier work

CCN(CC)CC#CCOC(=O)C(O)(c1ccccc1)C1CCCCC1 (stereo not shown) [oxybutynin, 4-diethylaminobut-2-ynyl 2-cyclohexyl-2-hydroxy-2-phenylethanoate]
effectiveness relative to other muscarinic antagonists in combination with muscarinic agonists: less effective than the other muscarinic antagonists
